Assay results: patent US12492210B2, “Tricyclic compounds and their use” (HUTCHISON MEDIPHARMA LIMITED, priority 2019, dated 2025)

By UniProt entry, the sequences of proteins in these tests, tags left out.
UniProt P28482, whole entry: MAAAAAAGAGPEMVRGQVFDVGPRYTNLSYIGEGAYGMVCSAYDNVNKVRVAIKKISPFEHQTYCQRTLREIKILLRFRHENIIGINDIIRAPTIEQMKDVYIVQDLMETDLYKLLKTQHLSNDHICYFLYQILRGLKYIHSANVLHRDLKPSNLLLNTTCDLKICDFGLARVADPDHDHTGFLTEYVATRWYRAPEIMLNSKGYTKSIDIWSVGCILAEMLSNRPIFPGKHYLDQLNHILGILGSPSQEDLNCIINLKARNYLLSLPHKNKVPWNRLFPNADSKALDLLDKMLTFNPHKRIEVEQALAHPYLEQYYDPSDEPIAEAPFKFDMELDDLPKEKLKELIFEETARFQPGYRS

What was measured:
MAPK1(ERK2) enzyme = MAPK1(ERK2) enzyme (Homo sapiens, UniProt P28482); assay: Z-Lyte Kinase Assay of ERK2; conditions: read-out: Example 18 IC50
Method: Example 18: Z-Lyte Kinase Assay of ERK2
1. Materials and Reagents:
2. Reaction Steps: Plate Map
3. Solution Preparation • 1) 1.33× Kinase Buffer: Dilute 5× Kinase Buffer to 1.33× with ddH2O • 2) 4× Test Compounds: Serially dilute the test compounds to 4 folds of the concentrations desired, keeping the DMSO concentration at 8%. The final concentrations are 1, 0.33, 0.11, 0.037, 0.012, 0.004, 0.0014, 0.00046 μM, and the final concentration of DMSO is 2%. • 3) Kinase/Peptide Mixture (P/K solution): Prepare Kinase/Peptide Mixture by diluting the kinase to 0.6 μg/ml and the Z-LYTE™ Ser/Thr3 peptide to 4 μM in 1.33× Kinase Buffer. Mix gently by pipetting. • 4) Phospho-peptide Solution (PP solution): Add 0.4 μl of Z-LYTE™ Ser/Thr3 Phospho-peptide to 99.6 μl of 1.33× Kinase Buffer. • 5) ATP Solution: Prepare ATP Solution by diluting the 10 mM of ATP in 1.33× Kinase Buffer to 100 μM. • 6) Development Solution: Dilute Development Reagent A with Development Buffer as 1:1024. 4. Reaction • 1) Kinase reaction (10 μl of Volume) • a. In a 384-well plate, add 2.5 μl of 4× test Cpds to each well except C1, C2, C3 wells Add 2.5 μl of 8% DMSO to C1, C2, C3 wells • b. Put the plate on ice • c. Add 5 μl of P/K mixture to each test Cpd wells and C1, C2 wells • d. […] Seal the plate to protect from the light and incubate the plate for 1 hour at RT (25-30° C.) • 3) Stop and read • a. […]

[1] = system: p-RSK (Thr359) in colo205 cells; assay: p-RSK (Thr359) Acumen Assay in Colo205; conditions: read-out: Example 19 IC50, 1 hour compound incubation
Method: Example 19: p-RSK (Thr359) Acumen Assay in Colo205
• Phospho-p90RSK (Thr359) (D1E9) Rabbit mAb: cell signal, #8753 • Alexa Fluor® 488 donkey anti-rabbit IgG: invitrogen, #A-21206 • Propidium Iodide: Sigma, #p4170 • 4% Paraformaldehyde: SCRC, #DF021 • 10% Triton X-100: PIERCE, #28314 • 96-well plate (black with clear bottom): BD, #354640 • Acumen® eX3 (A Multilaser Microplate Cytometer For Enhanced High Content Screening): TTP LabTech 3. Acumen Assay Protocol • Seed 4000 cells in 100 μl 10% FBS/well into 96-well plate, incubate at 37° C., 5% CO2, overnight. • Dilute the compound to 3, 1, 0.33, 0.11, 0.037, 0.012, 0.004, 0.001 μM, keeping the DMSO concentration at 5%. Add 10 μl of diluted compound per well and incubate at 37° C., 5% CO2 for 1 hour. • Add 100 μl of 4% pre-warmed Paraformaldehyde (2% final), and incubate for 45 min at room temperature. • Remove paraformaldehyde solutions. Add 100 μl of ice-cold 0.1% Triton to fixed cells at room temperature for 30 min. • Wash twice with 150 μl PBS and incubate with 100 μl blocking buffer (1% BSA, in PBS) for 2˜3 hours at room temperature, seal the plate. • Wash once with PBS and incubate with 35 μl p-RSK (Thr359) (1:1000 dilution) overnight at 4° C. […]

- IC50 (MAPK1(ERK2) enzyme): < 5 nM
- IC50 [1]: > 100 nM
Structure (SMILES): CO[C@H]1COCC[C@@H]1Nc1ncc(C)c(-c2cc3n(c2)CCCn2c-3nnc2C2(C(F)(F)F)CCC2)n1 (relative stereo)
